Reference: article PMC5786306, “An AKAP-Lbc-RhoA interaction inhibitor promotes the translocation of aquaporin-2 to the plasma membrane of renal collecting duct principal cells” (PLoS ONE, 2018)
Where two headings read alike, the source gives them in different places.

Amino acid sequences for entries named in this document (tags omitted).
UniProt P61586, whole entry: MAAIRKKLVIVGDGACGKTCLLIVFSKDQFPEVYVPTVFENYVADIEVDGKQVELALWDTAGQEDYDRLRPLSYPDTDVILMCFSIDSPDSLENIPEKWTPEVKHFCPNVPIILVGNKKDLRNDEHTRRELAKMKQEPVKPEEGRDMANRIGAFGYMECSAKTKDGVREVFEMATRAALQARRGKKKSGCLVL

Columns and labels:
[1] = target: interaction of AKAP-Lbc/DHPH and RhoA (Homo sapiens, UniProt P61586); assay: Homogeneous time-resolved fluorescence (HTRF) assay
Nephelometric solubility = details: maximal solubility in DMEM + 10 % FCS; for Solubility 0.3 % DMSO: 0.3 % DMSO final; for Solubility 2 % DMSO: 2 % DMSO final
[2] = target: AKAP-Lbc/DHPH-induced RhoA activation (Homo sapiens, UniProt P61586); assay: Guanine nucleotide exchange (GEF) assay with mant-GTP (screen and secondary assays); details: for ResidualPercentActivity / z_score: screening data
[3] = read-out: HTRF assay IC50, Suppl. Tab. 3, ± SEM, '-' = no IC50, inactive, n.d. = not determined
[4] = read-out: IC50_uM, Suppl. Tab. 2, tested at 1, 10 and 100 μM
[5] = read-out: IC50 for inhibition of AKAP-Lbc/DHPH-induced RhoA activation, nucleotide exchange assay, Fig 1D

| Structure (SMILES) | IC50 [1, 3] [µM] | Solubility 0.3 % DMSO (Nephelometric solubility) [µM] | Solubility 2 % DMSO (Nephelometric solubility) [µM] | IC50 ([1]; read-out: IC50 ± SEM, Table 1, HTRF, '-' = no IC50, inactive (n.d. is used separately in S3 Table)) [µM] | ResidualPercentActivity ([2]; Suppl. Tab. 2) [%] | z_score ([2]; Suppl. Tab. 2) | IC50 [2, 4] [µM] | IC50 [2, 5] [µM] |
| --- | --- | --- | --- | --- | --- | --- | --- | --- |
| Cc1c(C)c2ccc(OCC(=O)c3ccc(Oc4ccccc4)cc3)cc2oc1=O | > 200 | > 150 | 100 | – | – | – | – | – |
| COc1ccc2cc(C(=O)COc3ccc4c(C)c(CCC(=O)O)c(=O)oc4c3)ccc2c1 | – | – | – | > 200 | – | – | – | – |
| Cc1nc(-c2ccc(F)cc2)ccc1-c1coc2cc3oc(=O)c(CCC(=O)O)c(C)c3cc12 | > 200 | > 150 | 10 | – | – | – | – | – |
| Cc1c(C)c2ccc(OCC(=O)c3ccc(-c4ccccc4)cc3)cc2oc1=O | > 200 | 75 | 90 | – | – | – | – | – |
| COc1ccc(-c2coc3cc4oc(=O)cc(C)c4cc23)cc1 | – | – | – | – | 105.0 | 0.9 | 31 | – |
| Cc1cc(=O)oc2c(C)c3occ(-c4ccccc4)c3cc12 | – | – | – | – | 74.0 | -1.8 | 21 | – |
| Cc1c(C)c2ccc(OCC(=O)c3ccc4ccccc4c3)cc2oc1=O | > 200 | 40 | 70 | – | – | – | – | – |
| CCCc1cc(=O)oc2cc3occ(-c4ccc(OC)cc4)c3cc12 | – | – | – | – | 1.0 | -8.2 | – | 40 |
| CCOC(=O)CCc1c(C)c2ccc(OCC(=O)c3ccc(Oc4ccccc4)cc3)cc2oc1=O | > 200 | > 30 | 30 | – | – | – | – | – |
| Cc1nc(-c2ccc(F)cc2)ccc1C(=O)COc1ccc2c(C)c(CCC(=O)O)c(=O)oc2c1 | > 200 | > 150 | 20 | – | – | – | – | – |
| CCOC(=O)CCc1c(C)c2ccc(OCC(=O)c3ccc(C(F)(F)F)cc3)cc2oc1=O | > 200 | 75 | 50 | – | – | – | – | – |
| CCc1cc(=O)oc2c(C)c3occ(-c4ccc(OC)cc4)c3cc12 | – | – | – | – | 104.0 | 1.0 | 14 | – |
| CCOC(=O)c1c(-c2ccccc2)oc2cc(Br)c(OC(C)=O)cc12 | – | – | – | – | 10.0 | -9.2 | 31 | – |
| CCOC(=O)CCc1c(C)c2ccc(OCC(=O)c3ccc4cc(OC)ccc4c3)cc2oc1=O | > 200 | 40 | 10 | – | – | – | – | – |
| CCOC(=O)CCc1c(C)c2ccc(OCC(=O)c3ccc(-c4cccc(OC)c4)cc3)cc2oc1=O | > 200 | 10 | 10 | – | – | – | – | – |
| O=c1oc2cc3occ(-c4ccc5c(c4)OCO5)c3cc2c2c1CCCC2 | – | – | – | – | -4.0 | -8.6 | 10 | – |
| CCOC(=O)CCc1c(C)c2ccc(OCC(=O)c3ccc(N(C)C)cc3)cc2oc1=O | > 200 | 40 | 10 | – | – | – | – | – |
| CCOC(=O)CCc1c(C)c2ccc(OCC(=O)c3ccc(O)cc3)cc2oc1=O | > 200 | > 150 | 100 | – | – | – | – | – |
| COc1cc(NC(=O)Cn2c3ccccc3c(=O)c3ccccc32)cc(OC)c1OC | – | – | – | – | 93.0 | 0.1 | 40 | – |
| Cc1c(CCC(=O)O)c(=O)oc2cc(OCC(=O)c3ccc(C(F)(F)F)cc3)ccc12 | > 200 | > 30 | 100 | – | – | – | – | – |

Results, then the compound that gave them:

| IC50 [1, 3] [µM] | Solubility 0.3 % DMSO (Nephelometric solubility) [µM] | Solubility 2 % DMSO (Nephelometric solubility) [µM] | IC50 ([1]; read-out: IC50 ± SEM, Table 1, HTRF, '-' = no IC50, inactive (n.d. is used separately in S3 Table)) [µM] | ResidualPercentActivity ([2]; Suppl. Tab. 2) [%] | z_score ([2]; Suppl. Tab. 2) | IC50 [2, 4] [µM] | IC50 [2, 5] [µM] | Structure (SMILES) |
| --- | --- | --- | --- | --- | --- | --- | --- | --- |
| > 200 | – | 30 | – | – | – | – | – | Cc1c(CCC(=O)O)c(=O)oc2cc(OCC(=O)c3ccc(Oc4ccccc4)cc3)ccc12 |
| > 200 | 20 | 10 | – | – | – | – | – | CCOC(=O)CCc1c(C)c2ccc(OCC(=O)c3ccc(-c4ccccc4)cc3)cc2oc1=O |
| > 200 | > 30 | 10 | – | – | – | – | – | COc1ccc(-c2coc3cc4oc(=O)c(CCC(=O)Nc5cccnc5)c(C)c4cc23)cc1 |
| > 200 | > 150 | 80 | – | – | – | – | – | CCOC(=O)CCc1c(C)c2ccc(OCC(=O)c3ccc(OCC(=O)c4ccc(O)cc4)cc3)cc2oc1=O |
| – | – | – | – | 62.0 | -2.7 | 37 | – | Cc1oc2cc3oc(=O)cc(-c4ccccc4)c3cc2c1C |
| > 200 | 40 | 35 | – | – | – | – | – | COc1ccc2cc(C(=O)COc3ccc4c(C)c(C)c(=O)oc4c3)ccc2c1 |
| > 200 | > 150 | 100 | – | – | – | – | – | COc1ccc(COc2ccc3c(C)c(CCC(=O)O)c(=O)oc3c2)cc1 |
| > 200 | > 30 | 20 | – | – | – | – | – | Cc1c(CCC(=O)O)c(=O)oc2cc3occ(-c4ccc5ccccc5c4)c3cc12 |
| > 200 | 40 | 90 | – | – | – | – | – | CCOC(=O)CCc1c(C)c2ccc(OCC(=O)c3ccccc3)cc2oc1=O |
| > 200 | > 150 | 100 | – | – | – | – | – | CCOC(=O)CCc1c(C)c2ccc(OCC(=O)c3ccncc3)cc2oc1=O |
| – | – | – | – | -39.0 | -11.8 | – | 79 | CCCCc1cc(=O)oc2cc3occ(-c4ccc(OC)cc4)c3cc12 |
| – | – | – | – | -61.0 | -9.0 | 15 | – | Cc1cccc(C)c1Nc1c(-c2c[nH]c3ccccc23)nc2cnccn12 |
| – | – | – | – | 71.0 | -2.3 | 39 | – | CCc1cc(=O)oc2cc3occ(C)c3cc12 |
